Data as given in patent publication US20080166345A1, “MEDICAMENTS COMPRISING GENE RECOMBINANT ANTIBODY AGAINST GANGLIOSIDE GD3” (KYOWA HAKKO KOGYO CO., LTD., priority 2001, published 2008).

System: GD3 expressing B16 cell B16•29-10
Assay: Antitumor effects of KM871 with human IL-2, mouse syngeneic graft model
Format: in vivo, C57 BL/6 mouse
Conditions: FIG. 4; KM871 50 μg/day, IL-2 10 μg/day, days 6-14, tail vein
Method: The GD3 expressing B16 cell B16•29-10 obtained in c. of the item (2) of Example 1 was suspended in PBS to give a density of 1×10^8 cells/ml, and 50 μl of the suspension was inoculated under the abdominal side skin of a C57 BL/6 mouse (male, 7-week-old, manufactured by Charles River). Six days after the tumor inoculation, the tumor diameter was measured using slide calipers to calculate the tumor volume by the following equation, and individuals having the value within the range of 10 to 80 mm^3 were selected.
Tumor volume=(width)^2×length×0.5
They were divided into groups in such a manner that the average tumor volume became uniform, and then the following administration groups of A to D were arranged to carry out continuous administration of the following agents from the tail vein once a day for 8 days (from the 6th day to 14th day).
C. IL-2 (Human Recombinant IL-2, Manufactured by Peprotech) Alone Group:
D. KM871+IL-2 Combined Administration Group:
The test was carried out using 5 animals for each group. Each agent was prepared to 200 μl per animal by diluting with a citrate buffer (an aqueous solution of 10 mM citric acid and 150 n sodium chloride, adjusted to pH 6 with sodium hydroxide). From the 6th day after the inoculation, the tumor volume was periodically measured, and the antitumor effects were judged by comparing the mean value of specific volume V/V0 in each group.

## IL-2: human IL-2; Immunase 35 (Shionogi) in xenograft test, human recombinant IL-2 (Peprotech) in syngeneic test [reference compound]
  tumor growth inhibitory effects (mean V/V0): antitumor effects were not found
